What was measured:
MMP-7 (Matrilysin) = MMP-7 (Matrilysin) (Homo sapiens, UniProt P09237); assay: Ki determination with fluorogenic synthetic substrates, recombinant MMP-7
Description: (§1) In this example, the affinity constant Ki of the pseudo-peptides in tables 5 to 8 are examined with respect to the different matrix metalloproteases MMP.
(§2) The MMPs used were produced in recombinant form, in an E. coli expression system, and then purified using different types of chromatographies. Apart from stromelysin-3 (MMP-11), the MMPs produces correspond to human sequences. The Stromelysin-3 used in this study corresponds to the murine form.
(§3) The activity of each MMP was determined using two fluorogenic synthetic substrates. The cutoff of said substrates, which generates a fluorescent signal proportional to the quantity of split substrate, enables a precise determination of the kinetic parameters. The affinity constants Ki were calculated using the equation of Horowitz et al, Proc. Natl. Acad. Sci. USA, 1987, 84, p. 6654-6658 [14], accounting for the dependency of the percentage of inhibition measured experimentally according to the concentration of inhibitor, as a function of the enzyme and substrate concentration.
(§4) The experiments for conducted in a Tris/50 mM HCl buffer, pH 6.8, 10 mM CaCl2, 25° C.

Protein sequences, listed by entry. Tags and fused reporters are not part of them. Residues count along the entry.
UniProt P09237, 95-267 limits assumed: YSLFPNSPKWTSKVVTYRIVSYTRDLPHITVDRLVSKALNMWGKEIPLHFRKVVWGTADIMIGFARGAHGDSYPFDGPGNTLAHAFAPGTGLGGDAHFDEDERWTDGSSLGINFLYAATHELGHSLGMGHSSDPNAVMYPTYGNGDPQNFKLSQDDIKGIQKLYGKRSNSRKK
UniProt P03956, 100-469 limits assumed: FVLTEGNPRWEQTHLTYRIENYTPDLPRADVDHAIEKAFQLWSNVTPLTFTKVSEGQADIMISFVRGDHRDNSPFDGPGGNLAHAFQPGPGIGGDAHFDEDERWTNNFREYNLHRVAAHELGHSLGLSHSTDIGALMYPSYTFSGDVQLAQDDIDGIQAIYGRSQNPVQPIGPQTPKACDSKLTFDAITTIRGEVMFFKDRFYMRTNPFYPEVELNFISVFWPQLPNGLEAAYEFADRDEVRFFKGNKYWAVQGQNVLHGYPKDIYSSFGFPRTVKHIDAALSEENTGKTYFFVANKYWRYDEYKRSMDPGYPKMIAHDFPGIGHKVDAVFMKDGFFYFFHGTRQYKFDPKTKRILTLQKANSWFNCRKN

MMP-1 (HFC) = MMP-1 (HFC) (Homo sapiens, UniProt P03956); assay: Ki determination with fluorogenic synthetic substrates, recombinant MMP-1
Description: as §1, §2, §3, §4

CCCCCCCC(CP(=O)(O)C(Cc1ccccc1)NC(=O)OCc1ccccc1)C(=O)N[C@@H](Cc1c[nH]c2ccccc12)C(N)=O (stereo partly shown)
percentage of inhibition, MMP-7 (MMP-7 (Matrilysin); @ 50 mM inhibitor): 50% @ 50 mM

NC(=O)[C@H](Cc1c[nH]c2ccccc12)NC(=O)C(CCc1ccc2ccccc2c1)CP(=O)(O)C(Cc1ccccc1)NC(=O)OCc1ccccc1 (stereo partly shown)
percentage of inhibition, MMP-1 (MMP-1 (HFC); @ 2 mM inhibitor): 0% @ 2 mM | Ki (MMP-7 (Matrilysin); read-out: affinity constant Ki, MMP-7 Matrilysin, Tris/50 mM HCl buffer, pH 6.8, 10 mM CaCl2, 25° C.): 210 nM

NC(=O)[C@H](Cc1c[nH]c2ccccc12)NC(=O)C(Cc1ccc2ccccc2c1)CP(=O)(O)C(Cc1ccccc1)NC(=O)OCc1ccccc1 (stereo partly shown)
percentage of inhibition, MMP-1 (MMP-1 (HFC); @ 5 mM inhibitor): 0% @ 5 mM
